Target: hKv1.2 (Homo sapiens, UniProt P16389)
Assay: patch-clamp whole-cell recording, K+ current block
Assay type: cell-based
Method: Electrophysiological experiments were carried out at 22-24° C. using the patch-clamp whole-cell recording mode. Cells were bathed with mammalian Ringer's solution (in mM): 160 NaCl, 4.5 KCl, 2 CaCl2, 1 MgCl2, and 10 HEPES (pH 7.4 with NaOH), with an osmolarity of 290-320 mOsm. […] A syringe-driven perfusion device was used to exchange the external recording bath solution. Two internal pipette solutions were used, one for measuring voltage-gated K^+ currents that contained (in mM): 155 KF, 2 MgCl2, 10 HEPES, and 10 EGTA (pH 7.2 with KOH), with an osmolarity of 290-320 mOsm and another for measuring Ca^2+-activated K^+ currents that contained (in mM): 135 K-aspartate, 8.7 CaCl2, 2 MgCl2, 10 EGTA, 10 HEPES (pH 7.2 with KOH), with an osmolarity of 290-320 mOsm. A free [Ca^2+]i of 1 μM was calculated. All currents through voltage-gated K^+ channels were elicited by 200 ms depolarising voltage steps from −80 to +40 mV. […] Membrane currents were measured with an EPC-9 or EPC-10 patch-clamp amplifier (HEKA Elektronik, Lambrecht, Germany) interfaced to a Macintosh computer running acquisition and analysis software (Pulse and PulseFit). When voltage-gated K^+ currents were measured, the capacitive and leak currents were subtracted using a P/10 procedure. […]

Sequences of proteins named here, by UniProt entry; tags and fusion partners are left off.
UniProt P16389, whole entry: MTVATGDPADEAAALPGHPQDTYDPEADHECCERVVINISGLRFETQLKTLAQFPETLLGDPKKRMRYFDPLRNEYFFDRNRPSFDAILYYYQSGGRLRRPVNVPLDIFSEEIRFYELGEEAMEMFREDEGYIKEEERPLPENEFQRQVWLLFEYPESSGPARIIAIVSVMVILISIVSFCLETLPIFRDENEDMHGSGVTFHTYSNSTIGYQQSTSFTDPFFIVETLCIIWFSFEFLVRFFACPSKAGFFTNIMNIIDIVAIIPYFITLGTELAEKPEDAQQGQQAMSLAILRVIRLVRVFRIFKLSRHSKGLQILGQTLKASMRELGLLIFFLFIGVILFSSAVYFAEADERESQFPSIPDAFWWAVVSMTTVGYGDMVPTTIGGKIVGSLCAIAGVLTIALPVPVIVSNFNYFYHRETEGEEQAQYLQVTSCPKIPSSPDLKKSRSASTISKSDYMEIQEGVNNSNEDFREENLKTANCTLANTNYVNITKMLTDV

## CC[C@H](C)[C@@H]1NC(=O)[C@H](CCCCN)NC(=O)[C@@H](NC(=O)[C@H](CCCCN)NC(=O)[C@@H](NC(=O)[C@H](CC(N)=O)NC(=O)[C@@H](NC(=O)[C@@H](NC(=O)[C@@H](NC(=O)CN)C(C)C)[C@@H](C)CC)[C@@H](C)CC)C(C)C)CSSC[C@@H]2NC(=O)[C@H](CCCCN)NC(=O)CNC(=O)[C@H](Cc3ccccc3)NC(=O)[C@H](CCCNC(=N)N)NC(=O)[C@H](CCSC)NC(=O)CNC(=O)[C@H](C)NC(=O)[C@H](CCCCN)NC(=O)[C@H](CCCCN)NC(=O)[C@@H]3CSSC[C@@H](C(=O)N[C@H](C(=O)N4CCC[C@H]4C(=O)N[C@@H](CCCCN)C(=O)O)[C@@H](C)O)NC(=O)[C@H](Cc4c[nH]cn4)NC(=O)[C@H](CSSC[C@H](NC(=O)[C@H](CCC(N)=O)NC(=O)[C@H](CCCNC(=N)N)NC(=O)[C@H](CO)NC1=O)C(=O)N[C@@H](CC(C)C)C(=O)N[C@@H](CCC(=O)O)C(=O)N1CCC[C@H]1C(=O)N3)NC(=O)[C@H](CCCCN)NC(=O)CNC(=O)[C@H](CC(N)=O)NC(=O)[C@H](CCSC)NC2=O [OsK1, reference compound]
  activity on Kv1.2 channel (in words): potently active

Reference: patent US7745575B1 (Cellpep Pharma Inc., priority 2004, dated 2010)
